The values that follow come from patent US8710082B2, “Benzimidazole inhibition of biofilm formation” (priority 2011, dated 2014).

Take `COc1ccc2[nH]c(SCc3ccc(C)cc3)nc2c1` [ABC-1, 5-methoxy-2-[(4-methylbenzyl)sulfanyl]-1H-benzimidazole]: the “reduction of biofilm formation on coated surface” value with P. aeruginosa CF-145 and in the experiment on V. cholerae was “at least 50%” throughout.
